From US5712367A, “Process for the solubilization of peptides and process for peptide synthesis” (Rhone-Poulenc Chimie, priority 1989, dated 1998)

Test: Measurement of the solubilities of the molecules of formula (L)-seryl-A--L in water
Settings: measured in the filtrate after grinding in water for 15 minutes
Protocol: Ammonia gas was passed into this solution at room temperature. The ammonium chloride precipitate obtained was rapidly filtered off. […] The product obtained after concentration was immediately ground in water for 15 minutes at room temperature and then filtered off.
The solubility of the product of formula (L)-seryl-A--L was measured in the filtrate.

solubility in water at 25° C.: 750 µg/mL
Substance: L-Serine [3-phenoxybenzyl 3-(hydroxymethyl)benzoate] ester
